# AlphaSeq binding of Ab-14 light chain variants to a spike HR2 peptide

The measurements come from Engelhart et al. 2022 (doi:10.1038/s41597-022-01779-4) through the FLAb antibody collection.

The target is the same throughout: PDVDLGDISGINAS, from the HR2 region of SARS-CoV-2 spike.

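The starting antibody came from a phage panning campaign against this peptide. Variants in AAYL50 differ from the parent at up to three CDR positions; double and triple changes were sampled at random. Affinity was read by AlphaSeq, a pooled yeast mating assay with surface-displayed partners. The frequency of each diploid, read from paired DNA barcodes, reflects how well the two displayed proteins bind. Read counts were normalised to the haploid input and turned into Kd by a linear fit to BCL2-family pairs of known affinity, for each replicate. There are three technical replicates.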

Parent: Ab-14, a human scFv built as VH, three GGGGS repeats, VL. Only the CDRs of the light chain vary.
VH: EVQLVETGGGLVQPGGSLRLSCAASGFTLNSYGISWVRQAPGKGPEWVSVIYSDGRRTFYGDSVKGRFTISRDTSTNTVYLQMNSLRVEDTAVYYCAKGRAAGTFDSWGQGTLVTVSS
VL: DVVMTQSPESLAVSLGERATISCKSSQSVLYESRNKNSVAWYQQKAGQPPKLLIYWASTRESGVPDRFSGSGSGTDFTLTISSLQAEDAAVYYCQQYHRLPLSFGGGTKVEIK

The parent's light chain CDRs are KSSQSVLYESRNKNSVA, WASTRES, QQYHRLPLS; each variant's own CDRs replace them letter for letter.
Every variant below is changed at L100 of the VL (sequential numbering).
The Kd shown is the geometric mean over detected replicates; a lower Kd is a better binder.
A pair that was not seen in any replicate is written "nd"; this usually means weak binding, but a binder can also be missed.
Three control strains display no target. For library AAYL50, 18% of the pairings with them gave a signal, with a median of 15 µM and one signal in twenty below 970 nM, so weak values seen in few replicates may be background.

With KSSQSVLYESRNKNSVA | WASYRES | QQYHRPPVS the result was 290 nM (3 of 3 replicates). The variant KSSQSVLYESRNKNSVK | WASTRES | QQKHRWPLS gave nd (0 of 3 replicates). With KSSQSVLYERNNKNSVA | WASTRES | QQYHREPLS the result was 10 nM (3 of 3 replicates). The variant KSSQSVLYESRNKNAVA | WASTRES | QVYHRNPLS gave 25 µM (1 of 3 replicates). The variant KSSQSVLYESRFKNSVA | WASTRES | QQYRRNPLS showed 310 nM (3 of 3 replicates). For KSSQSVLYESRNKNSVA | WASTKES | QQYHRYPLS, the assay gave 20 nM (3 of 3 replicates). With KSSQSVLYESRNPNMVA | WASTRES | QQYHRMPLS the result was 2.6 µM (3 of 3 replicates).

The variant KSSQSYLYESRNKNSVA | WASTHES | QQYHRDPLS showed nd (0 of 3 replicates). For KSSQSALYESRNKNSVA | WASTRES | QQYQRNPLS, the assay gave 2.5 nM (3 of 3 replicates). For KSSQSVLYEARNKNSVA | WASTRES | QRYHRPPLS, the assay gave nd (0 of 3 replicates). For KSSQSVLYESRNKNSVA | WASPTES | QQYHRYPLS, the assay gave 4.6 µM (2 of 3 replicates). The variant KSSQSVLYELRNKNSVA | WASTRES | QQYHRSPLS gave 6.9 µM (1 of 3 replicates). The variant KSSQSVLYESVNKNSVA | WASTRES | QQHHRHPLS showed 13 nM (3 of 3 replicates). For KSSQSVLYESRNKNSVA | EASTRES | QQYHRCLLS, the assay gave nd (0 of 3 replicates).

With KSSQSVLYESRNKNSVA | WASTRES | QQYHRCPED the result was 100 µM (2 of 3 replicates). The variant KSSQSVLYTSRNKNSVA | WASTRES | VQYHRCPLS gave 45 µM (2 of 3 replicates). With KSSQSVLYESRNKNSWA | WASTRES | WQYHREPLS the result was 3.9 µM (3 of 3 replicates). With KSSLSVLYESRNKNTVA | WASTRES | QQYHRVPLS the result was 290 nM (2 of 3 replicates). The variant KSSQSVLIESRHKNSVA | WASTRES | QQYHRTPLS showed 17 µM (1 of 3 replicates). The variant KSSQSVLYESRNKNSVA | WASTNES | QQYHRHPLS gave 1.2 µM (1 of 3 replicates). For KSSQEVLYESRNKNSVA | WASTRES | QQYHRSPES, the assay gave 910 nM (1 of 3 replicates).

With KSSQSVLYTSRNKNSVF | WASTRES | QQYHRIPLS the result was nd (0 of 3 replicates). The variant KSSQSVLYESRIKNSVA | WASTRES | QQEHRPPLS showed 70 nM (3 of 3 replicates). For KSSQSVLFESRNKNSVM | WASTRES | QQYHRPPLS, the assay gave 130 µM (3 of 3 replicates). For HSCQSVLYESRNKNSVA | WASTRES | QQYHRYPLS, the assay gave 2.0 µM (3 of 3 replicates). The variant KSSMSVLYESRNKNSYA | WASTRES | QQYHRNPLS showed 39 µM (1 of 3 replicates). With KSSQLVLYESRNKDSVA | WASTRES | QQYHRAPLS the result was 1.4 µM (1 of 3 replicates). With KSSQSVLEESRNKNSVA | WASNRES | QQYHRDPLS the result was 22 nM (3 of 3 replicates).

The variant KSSQSVTYESRNANSVA | WASTRES | QQYHRWPLS gave 19 nM (3 of 3 replicates). With KSSQTVLYESRNKNSVA | WASTRES | QQYHRWPES the result was 6.7 nM (3 of 3 replicates). With KSSQSVLYESRRKNSVA | WASTRES | QQYHRVPLS the result was nd (0 of 3 replicates). For KSSQSVLYESRMKNSVA | WDSTRES | QQYHRSPLS, the assay gave 7.4 nM (3 of 3 replicates). The variant KSSQSVLYESRNGNSVA | WASTRLS | QQYHRGPLS showed nd (0 of 3 replicates). The variant KSSQSVLYESRNKNSVA | WASTRES | QCYHRVPDS showed 43 nM (3 of 3 replicates). With KPSQSVFYESRNKNSVA | WASTRES | QQYHRDPLS the result was nd (0 of 3 replicates).

The variant KSSQSVLYESRNKNSVA | WASNRDS | QQYHRFPLS showed 31 nM (3 of 3 replicates). The variant KSSWSVLYESRNKNSVA | WASTRES | SQYHRIPLS showed 210 µM (1 of 3 replicates). The variant KSSQSVLYESRNKNSVA | WASTRES | QQYPRFPLG gave nd (0 of 3 replicates). With WSSQSVLYESRNKNSVA | WASTRES | QQYHRIPLS the result was 17 µM (3 of 3 replicates). The variant KSSQSVLYESRNKNSVA | WASHRES | QQYHRRPLS gave nd (0 of 3 replicates). The variant KSSQSVLYESHNKNSVA | WPSTRES | QQYHRKPLS showed nd (0 of 3 replicates).

The first 3 variants above that were never detected:

KSSQSVLYESRNKNSVK | WASTRES | QQKHRWPLS: nd (0 of 3 replicates).
KSSQSYLYESRNKNSVA | WASTHES | QQYHRDPLS: nd (0 of 3 replicates).
KSSQSVLYEARNKNSVA | WASTRES | QRYHRPPLS: nd (0 of 3 replicates).